The values below come from ChEMBL document CHEMBL4130393, “An update on small molecules targeting CXCR4 as starting points for the development of anti-cancer therapeutics” (Eur J Med Chem, 2017).

Amino acid sequences for entries named in this document (tags omitted).
UniProt P61073, whole entry: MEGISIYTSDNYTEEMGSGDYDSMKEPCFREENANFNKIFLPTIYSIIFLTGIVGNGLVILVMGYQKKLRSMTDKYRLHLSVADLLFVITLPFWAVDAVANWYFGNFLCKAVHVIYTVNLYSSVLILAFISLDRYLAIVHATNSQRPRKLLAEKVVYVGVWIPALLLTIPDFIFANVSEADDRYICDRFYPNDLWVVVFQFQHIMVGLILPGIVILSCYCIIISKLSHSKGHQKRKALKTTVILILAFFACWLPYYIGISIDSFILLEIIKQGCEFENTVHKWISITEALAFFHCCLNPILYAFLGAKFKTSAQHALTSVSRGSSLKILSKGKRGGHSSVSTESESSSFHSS

This experiment has as its target C-X-C chemokine receptor type 4 (Homo sapiens, UniProt P61073). The experiment can be described thus: Antagonist activity at CXCR4 (unknown origin). Format: functional.

Turning to `NCCCCN(Cc1nc2ccccc2[nH]1)C1CCCc2cccnc21` (stereo unspecified), 13 nM corresponded to half-maximal inhibition (IC50).

Usually IC50 stands for the midpoint of a concentration-inhibition curve. High values mean weaker potency, low ones greater potency.
